# Laboratory results published in ChEMBL document CHEMBL2146416.
# How the values were obtained:
# NCCCC(=O)O [1] = assay: Ratio of Kcat to Km for pig GABA aminotransferase; settings: Sus scrofa
# NCCCC(=O)O [2] = assay: Activity of pig GABA aminotransferase using alpha-ketoglutarate as substrate after 16 hrs by Hanes-Woolf plot analysis; settings: Sus scrofa
substance,measurement,setting,value
"4-aminobutyrate aminotransferase, mitochondrial (Sus scrofa), P80147",kcat/Km,NCCCC(=O)O [1],643 M⁻¹ s⁻¹
same,kcat,NCCCC(=O)O [2],0.817 s⁻¹
